Assay results published in patent publication US9637496B2, “Substituted 7-azabicycles and their use as orexin receptor modulators” (priority 2013, dated 2017).

Amino acid sequences for entries named in this document (tags omitted).
UniProt O43613, whole entry: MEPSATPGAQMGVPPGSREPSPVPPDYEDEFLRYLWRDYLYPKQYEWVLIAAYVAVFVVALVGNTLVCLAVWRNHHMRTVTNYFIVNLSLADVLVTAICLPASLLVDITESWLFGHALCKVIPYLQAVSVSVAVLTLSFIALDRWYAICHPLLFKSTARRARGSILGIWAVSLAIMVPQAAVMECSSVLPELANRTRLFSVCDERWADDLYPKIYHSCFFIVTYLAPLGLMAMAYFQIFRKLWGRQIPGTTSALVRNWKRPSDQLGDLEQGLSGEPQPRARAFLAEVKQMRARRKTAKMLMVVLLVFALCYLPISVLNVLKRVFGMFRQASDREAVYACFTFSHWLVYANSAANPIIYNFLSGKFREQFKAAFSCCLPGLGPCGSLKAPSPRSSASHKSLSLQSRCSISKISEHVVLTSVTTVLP

Target: human orexin 1 receptor (Homo sapiens (Human), UniProt O43613)
Assay: Human orexin 1 receptor radioligand binding (competitive binding, CHO membranes)

## O=C(c1ccccc1-n1nccn1)N1C2CCC1C(Nc1cc(C(F)(F)F)ccn1)C2 (racemic) [Example 210, (±)-((2-(2H-1,2,3-triazol-2-yl)phenyl)(2-((4-(trifluoromethyl)pyridin-2-yl)amino)-7-azabicyclo[2.2.1]heptan-7-yl)methanone]
  Ki: 128 nM
